# TRPM1 prom inh – inhibitors of MITF-dependent TRPM1 promoter reporter, primary screen, cell-based, SK-MEL-5, single point, luciferase | SK-MEL-5 TRPM1 promoter luciferase, 24 h | inhibition, % at 12.5 µM | actives 0.83% (n = 330,000) | AID 488899, 2010;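 active = mean inhibition across replicates of 60% or more, whatever share of single replicates reaches that level; inconclusive = some that reach 60%, reason not given; inactive = mean inhibition across replicates below 60%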
# miR-122 sensor – miR-122 Renilla sensor signal increase in Huh7, primary screen, miR-122 inhibitor project, cell-based, single point, plate reader; Huh7 miR-122 Renilla luciferase sensor, 48 h; neutral wells = 0, positive control = 100; activation (reporter increase), % at 12.5 µM; actives 0.3% (n = 340,000); AID 602342, 2012;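 active = mean replicate activation score at least 90 and every replicate individually at or above 90; inconclusive = only one of the two criteria met; inactive = neither criterion met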;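 note: higher luciferase means less miR-122 activity so hits act as miR-122 inhibitors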
# UUG fidelity – yeast start codon fidelity modulation; activity score, % at 18.7 µM; actives 0.13% (n = 350,000); S. cerevisiae UUG-firefly luciferase reporter, luminescence/redox ratio; AID 602363;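 active means replicate mean at a twofold rise or more, about +100% in these data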;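 further: firefly luciferase made from a UUG start codon reports start codon fidelity; reporter light over untreated wells divided by growth signal over untreated wells; some hits fall short of that in this replicate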
# MITF TRPM1 HTS – activators of MITF-driven TRPM1 promoter reporter, primary screen, cell-based, SK-MEL-5, luciferase, single point. SK-MEL-5 TRPM1-promoter luciferase, 24 h; % of positive control, neutral wells = 0. activation, % at 12.5 µM. actives 0.75% (n = 300,000);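 active = mean activation of at least 80% with every replicate also reaching 80%; inconclusive = mean reaches 80% but some replicate falls short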;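 note: 0% = neutral control wells and 100% = parthenolide positive control wells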
# PGC1a acetyl inh – inhibitors of PGC1a acetylation signal, primary screen, cell-based, U2OS, AlphaScreen, inhibitor mode; AlphaScreen anti-acetyl-lysine; with virally co-expressed GCN5 acetyltransferase; inhibition, % at 15.6 µM; actives 0.17% (n = 350,000);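 active = every replicate shows inhibition of at least 40%; inconclusive = mean inhibition at least 40% but some replicate below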;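 note: 0% = neutral control wells and 100% = positive control wells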
# Wnt bcat act – Wnt/beta-catenin pathway activators, primary screen, cell-based, plate reader, single point; Wnt/beta-catenin reporter cell assay, activator; actives 1.2% (n = 300,000); activation, % at 9.35 µM; in the data active = activation above about 30%, passing the limit was not always enough; inconclusive = no clear call, values can overlap the other calls;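 note: 0% = neutral control wells and 100% = positive control wells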
# Starred values were filed as active, the others as inactive; ? = inconclusive; · = no result; ! = repeats disagree; [ ] = remark or other dose. Only some compounds are listed: those with a hit (about 2.1% of all), similar ones and a draw of the others.
SMILES,TRPM1 prom inh,miR-122 sensor,UUG fidelity,MITF TRPM1 HTS,PGC1a acetyl inh,Wnt bcat act
COC(=O)Nc1nncs1,-5,-2,-11,4,6,3
Nc1ccccc1C(=O)/C=C/c1ccc2c(c1)OCO2,-84,·,-20,85*,·,35*
CC(C)(C)c1ccc(/C=C/C(=O)Nc2nncs2)cc1,-84,-14,-20,89*,5,26
COc1ccc(C(=O)Nc2ccc3c(c2)OC[C@@H](C)N(C(C)=O)C[C@H](C)[C@@H](OC)CN(C)C3=O)cc1,·,-1[16.7 µM],13,·,-12,·
COc1ccc(NC(=O)N(C)C[C@H]2Oc3c(NS(C)(=O)=O)cccc3C(=O)N([C@@H](C)CO)C[C@H]2C)cc1,·,-2[16.7 µM],-9,·,1,·
C[C@H](CO)N1C[C@H](C)[C@H](CN(C)C(=O)Nc2ccc3c(c2)OCO3)OCc2cn(nn2)CCCC1=O,·,7[16.7 µM],·,·,4,·
Cc1nn(C)cc1/C=C/C(=O)c1ccccc1,-32,-4,-4,39,8,·
Cc1nn(C)c(C)c1/C=C/C(=O)c1cccs1,-42,-5,-11,·,10,39*
Cc1nn(C)cc1/C=C/C(=O)c1cccs1,-66,-7,-16,·,-14,90*
CCN1c2ccccc2NC2N=C(OC)C(c3ccccc3)C21 (stereo unspecified),87*,-13,·,-87,18,·
O=S(=O)(Nc1cccc(S(=O)(=O)N2CCCC2)c1)c1ccc(Br)cc1,·,44,-4,·,5,·
COc1ccc(NS(=O)(=O)c2cccc(Cl)c2)cc1S(=O)(=O)N1CCCCC1,2,438*,-10,-3,·,-2
Cc1ccc(S(=O)(=O)Nc2cccc(S(=O)(=O)N3CCCC3)c2)cc1C,-6,123*,8,6,6,0
COc1cc(S(=O)(=O)N2CCCCCC2)c(OC)cc1Br,-11,308*,-13,·,·,·
COc1ccc(NC(=O)N(C)C[C@@H]2Oc3ccc(NC(=O)Cn4cnnn4)cc3CC(=O)N([C@H](C)CO)C[C@@H]2C)cc1,·,-7[16.7 µM],13,·,8,·
C[C@H]1CN([C@@H](C)CO)C(=O)c2cc(NC(=O)Nc3cccc4ccccc34)ccc2O[C@@H]1CN(C)S(C)(=O)=O,·,-2[16.7 µM],24,·,3,·
O=C(/C=C(\Nc1cccc(Cl)c1F)c1ccccc1)c1ccccc1,·,·,·,·,·,47*
Cc1ccc2c(CN(C)Cc3cccc(F)c3)cc(=O)oc2c1,-84,-4,-6,88*,-9,0
Cc1noc(C)c1S(=O)(=O)N(C)C[C@@H]1Oc2ccc(NC(=O)Cc3ccccc3)cc2CC(=O)N([C@H](C)CO)C[C@H]1C,·,-2[16.7 µM],6,·,-5,·
C[C@@H]1CN([C@H](C)CO)C(=O)CCCn2cc(nn2)CO[C@H]1CN(C)C,·,-2[16.7 µM],·,·,2,·

# Fetched by structure from above:
SMILES,TRPM1 prom inh,miR-122 sensor,UUG fidelity,MITF TRPM1 HTS,PGC1a acetyl inh,Wnt bcat act
C[C@H](CO)N1C[C@H](C)[C@H](CN(C)C(=O)Nc2ccc3c(c2)OCO3)OCc2cn(nn2)CCCC1=O,·,7[16.7 µM],·,·,4,·
Cc1noc(C)c1S(=O)(=O)N(C)C[C@@H]1Oc2ccc(NC(=O)Cc3ccccc3)cc2CC(=O)N([C@H](C)CO)C[C@H]1C,·,-2[16.7 µM],6,·,-5,·

# Record cards, as listed above. Order of values: TRPM1 prom inh, miR-122 sensor, UUG fidelity, MITF TRPM1 HTS, PGC1a acetyl inh, Wnt bcat act
# C[C@H]1CN([C@@H](C)CO)C(=O)c2cc(NC(=O)Nc3cccc4ccccc34)ccc2O[C@@H]1CN(C)S(C)(=O)=O as listed: ·, -2[16.7 µM], 24, ·, 3, ·
# CCN1c2ccccc2NC2N=C(OC)C(c3ccccc3)C21 (stereo unspecified) as listed: 87*, -13, ·, -87, 18, ·
# COc1ccc(C(=O)Nc2ccc3c(c2)OC[C@@H](C)N(C(C)=O)C[C@H](C)[C@@H](OC)CN(C)C3=O)cc1 as listed: ·, -1[16.7 µM], 13, ·, -12, ·

# (next part)
SMILES,TRPM1 prom inh,miR-122 sensor,UUG fidelity,MITF TRPM1 HTS,PGC1a acetyl inh,Wnt bcat act
O=C1SC(SC(=Nc2ccccc2)Nc2ccccc2)C(=O)N1c1ccccc1 (stereo unspecified),-36,-1,·,36,8,48*
Oc1[nH]c2ccccc2c1C=Nc1ccc2c(c1)OCO2,-78,11,-15,?,12,39*
Cc1[nH]c2ccccc2c1/C=N\NC(=O)CNc1ccc2c(c1)OCO2,11,0,-11,-8,18,2
COc1ccc(CN=Cc2c(O)[nH]c3ccccc23)cc1,-12,1,·,12,15,3
COc1ccc(N=Cc2c(O)[nH]c3ccccc23)cc1,-74,-15,-15,50,1,59*
Oc1ccccc1C=NN=CC=Cc1ccccc1,-43,·,·,46,·,-3
O=[N+]([O-])c1ccccc1C=CC=NN=Cc1ccccc1O,-23,·,·,31,·,71*
N#C/C(=C\C=C\c1ccccc1[N+](=O)[O-])C(=O)NCc1ccccc1,69*,26,-2,-70,-128,3
N#C/C(=C\c1ccccc1[N+](=O)[O-])C(=O)NCc1ccccc1,-1,·,·,3,·,11
O=C(O)c1ccc(N/N=C/C=C/c2ccccc2[N+](=O)[O-])cc1,-113,45,-6,112*,-1,10
O=C(Cc1ccccc1)N/N=C/C=C/c1ccccc1[N+](=O)[O-],·,2,12,·,-5,35*
CC(=O)Nc1ccc2c(c1)C(=O)N(C)[C@H]1CC[C@H](CC(=O)NCc3ccc(Cl)cc3)O[C@@H]1CO2,·,5[16.7 µM],9,·,-1,·
Cc1cc(/C=C(\C#N)C(=O)NCc2cccs2)c(C)n1-c1ccccc1F,-65,3,1,65,-12,52*
Cc1ccccc1-n1c(C)cc(/C=C(\C#N)C(=O)NCC2CCCO2)c1C (stereo unspecified),-58,3,-11,61,-7,8
Cc1ncoc1C(=O)Nc1ncc([N+](=O)[O-])s1,-7,·,·,10,8,37*
O=C(Nc1ncc([N+](=O)[O-])s1)c1cccs1,-15,0,-20,19,2,42*!
C[C@H](CO)N1C[C@H](C)[C@H](CN(C)S(=O)(=O)c2ccc(F)cc2)OCCCC[C@H](C)Oc2ccc(NS(C)(=O)=O)cc2C1=O,·,-3[16.7 µM],6,·,4,·
c1ccc2c(-c3csc(-c4ccncc4)n3)c[nH]c2c1,-114,-6,-23,126*,-3,28
Cn1nc(-c2ccc(C(=O)NCCO)cc2)c2ccccc2c1=O,1,·,·,-3,·,6
CN(CCO)C(=O)c1ccc(-c2nn(C)c(=O)c3ccccc23)cc1,14,·,·,-14,4,34*
O=C(Nc1ncccc1O)c1ccc(Oc2ccccc2)cc1,-47,-9,-27,47,·,37*
O=C(COc1ccc(C(=O)c2ccccc2)cc1)Nc1ncccc1O,-2,3,-6,5,4,3
Cc1cc(NC(=O)c2sc3ccccc3c2O)no1,-13,6,-12,10,·,34*
Cc1ccc2oc(C(=O)N(C)Cc3ccon3)c(C)c2c1,-122,-4,-11,112*,7,44*
Cc1ccnc(NC(=O)c2cc3ccccc3o2)c1,40,·,-76,-40,·,21
O=C(Nc1ccccn1)c1cc2ccccc2o1,62*,-1,-74,-62,-18,·
COc1ccc(S(=O)(=O)N(C)C[C@H]2Oc3c(NC(=O)c4cc(C)nn4C)cccc3C(=O)N([C@@H](C)CO)C[C@H]2C)cc1,·,1[16.7 µM],-6,·,9,·
CO[C@@H]1CN(C)C(=O)c2ccc(NS(=O)(=O)C3CCCCC3)cc2OC[C@H](C)NC[C@H]1C,·,-14[16.7 µM],-25,·,-10,·
Cc1c(C(=O)Nc2ccccn2)oc2ccccc12,-21,95*,-23,23,-11,?
Cc1ccc2oc(C(=O)Nc3cc(C)on3)c(C)c2c1,-24,-14,-1,21,-3,43*
